The numbers were not newly measured in patent publication US8017627B2, which cites them from elsewhere.

In the data set the test system is pain. Particulars: plain tablets for p.n. use.

Take `CN1CC[C@]23c4c5ccc(O)c4O[C@H]2[C@@H](O)C=C[C@H]3[C@H]1C5`: the duration of effect is 4 to 6 h.
